Measured values published in patent US20260234188A1, “CHEMOKINE-BINDING PEPTIDES” (OXFORD UNIVERSITY INNOVATION, published 2026).

Target: T1, CCL8_HUMAN (human, UniProt P80075 24-99)
T1 sequence (looked up): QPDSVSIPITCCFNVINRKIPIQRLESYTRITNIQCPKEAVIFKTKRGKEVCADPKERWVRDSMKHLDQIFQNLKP

## EEDDYTAYAPLTCYFT (other) [HIS:SUMO:HD2 fusion protein]
  Kd: 143 nM
